Experimental data from patent publication US10611795B2, “Methods for viral inactivation using eco-friendly detergents” (priority 2013, dated 2020).
Where two headings read alike, the source gives them in different places.

Legend:
[1] = cited from earlier work
[2] = EHS evaluation: basic physical and toxicological characteristics from manufacturer and government literature

In the case of `CCCCOP(=O)(OCCCC)OCCCC`, the “NOECs (chronic toxicity)” value ([1]; 21-day study, Daphnia magna) is given as “NOECs: 0.87 mg/L (21-day”, the “NOEC (chronic toxicity)” value ([1]; 95-day early life-stage study, fish) is given as “NOEC: 0.82 mg/L (95-day” and the “NOEC (chronic toxicity)” value ([1]; Algae, biomass in Scenedesmus subspicatus) is given as “NOEC: 0.37 mg/L for Algae”. For the same molecule, the “48-hr EC50” value ([1]; Chlorella emersonii) was 48-hr EC50: 5-10 mg/L for, the “96-hr LC50” value ([1]; Japanese kill fish (Oryzias latipes)) was 96-hr LC50: 4.5 mg/L for and the “96-hr LC50” value ([1]; Zebra fish Brachydanio rerio, static test) was 96-hr LC50: 11.8 mg/L for. The “72-hr EC50” value ([1]; biomass in Scenedesmus subspicatus) was 72-hr EC50: 1.1 mg/L for, the “Solubility in water (general characteristics)” value [1] was “Slightly soluble in water” and the “96-hr LC50” value ([1]; fathead minnow (Pimephales promelas), flow through test) was 96-hr LC50: 8.18 mg/L for. For the same molecule, the “96-hr LC50” value ([1]; rainbow trout (Oncorhynchus mykiss), freshwater) was 96-hr LC50: 5 mg/L for, the “definitive chronic PNEC for freshwater” value [2] was “freshwater is 0.037 mg/L” and the “extrapolated marine PNEC” value [2] was 0.0037 mg/L (uncertain).
